{
  "source": "patent US6423701B1",
  "about": "“Water soluble amine esters of testosterone for intranasal administration” (University of Kentucky, priority 1996, dated 2002)",
  "key": {"[1]": {"experiment": "Nasal absorption of TSDG in rats: plasma levels after intranasal and intravenous administration, HPLC", "format": "in vivo, Male Sprague-Dawley rats", "method": "The nasal absorption of the water soluble testosterone prodrug TSDG was studied using an in vivo experimental technique previously described by Huang et al. (J.Pharmaceut. Sci., 74: 608-611, 1985).\nMale Sprague-Dawley rats weighing 250-275 gm were used. Animals were fasted overnight before the experiment, but water was given ad libitum. All surgical procedures were performed under sodium pentobarbital anesthesia (40 mg/kg i.p.). An incision was made in the neck, and the trachea was cannulated with a polyethylene tube. A closed tube was inserted through the esophagus to the posterior part of the nasal cavity. The nasopalatine passage was closed with an adhesive agent to prevent drainage of the drug from the nasal cavity to the mouth.\nBlood samples were collected from a cannula inserted into the femoral artery. For intravenous administration, the jugular vein was cannulated for administering the dose.\nDrug solutions at 25 and 50 mg/kg/0.2 ml equimolar doses of TSDG were freshly prepared by using 0.05M phosphate buffer at pH 6.0. For nasal administration, aqueous solutions of TSDG and testosterone were administered through the nostril using a microsyringe. For intravenous administration, the same dose of the drug was injected through the jugular vein.\nBlood samples were collected at 0, 5, 10, 20, 30, 40, 60, 90, 120, 150, and 180 minutes. After immediate centrifugation (3000×g for 3 min), the plasma was separated. The animal was sacrificed after the last sample was obtained, and the samples were then analyzed by HPLC, using the method of Hsyu et al. (Pharm. Res. 11:156-159, 1994). Briefly, plasma concentrations of testosterone free base were determined via a HPLC protocol which included solid-phase extraction, separation on a reverse-phase cyano column, and UV detection at 305 nm."}, "[2]": {"conditions": "FIG. 3"}, "[3]": {"conditions": "human liver homogenate, FIG. 2"}},
  "data": [
    {"substance": "testosteronyl, N,N-dimethyl amine glyconate [TSDG]", "values": [
      {"measurement": "Absorption", "setting": "[1]; intranasal, 25.0 mg/kg", "result": "rapid"},
      {"measurement": "plasma levels at all time points, compared with intravenous administration", "setting": "[1]; intranasal, 25.0 mg/kg", "result": "comparable to those following intravenous administration"},
      {"measurement": "AUC", "setting": "[1]; intranasal, dose 25 mg/kg", "result": 1630, "unit": "ng·h/mL"},
      {"measurement": "AUC", "setting": "[1]; intranasal, dose 50 mg/kg", "result": 2660, "unit": "ng·h/mL"},
      {"measurement": "AUC", "setting": "[1]; intravenous, dose 25 mg/kg", "result": 1650, "unit": "ng·h/mL"},
      {"measurement": "AUC", "setting": "[1]; intravenous, dose 50 mg/kg", "result": 2830, "unit": "ng·h/mL"},
      {"measurement": "stability in water", "setting": "[2]", "result": "very stable in water"},
      {"measurement": "conversion to TS", "setting": "[3]", "result": "convert rapidly to TS"}
    ]}
  ]
}
